Measured values from patent US12702676B2, “Fosfomycin dosing regimens” (priority 2017, dated 2026).

Test: ZEUS Phase 2/3 trial, safety (adverse events)
Conditions: safety population (n=464)

piperacillin/tazobactam [P-T]
treatment-emergent adverse events (TEAEs) observed, % of patients: 32.0%
